Measured values: patent US11603349B2, “Anti-fibrotic compounds” (Certa Therapeutics Pty Ltd, priority 2017, dated 2023)
This is a selection: effects in other tests are not listed, and their absence says nothing.

Legend:
[1] = tested on: TGF-β induced [14C]-proline incorporation in rat mesangial cells; assay: [14C]-proline incorporation assay (collagen biosynthesis); assay type: cell-based; conditions: inhibition of TGF-β1 (1 ng/ml) induced [14C]-proline incorporation, IRMC cells, 44 hours
[2] = tested on: rat mesangial cells (1097/IRMC cells); assay: MTS tetrazolium reduction cell viability assay; conditions: TGF-β1 stimulated IRMC cells, vs 1% DMSO vehicle

C#CCOc1ccc(/C=C/C(=O)N[C@H]2CCCC[C@@H]2N)cc1OC
IC50 [1]: 36 µM
CC50 [2]: 96.4 µM
